Data: patent US20020192161A1, “Animal model for evaluating analgesics” (priority 2001, published 2002)

How the values were obtained:
[1] = Bioavailability of oral ibuprofen crushed tablets in control rats; assay type: in vivo, Sprague-Dawley rats; settings: 20 mg/kg ibuprofen oral as crushed tablets
Description: (§1) The animal models are Adult male Sprague-Dawley rats with body weight of 250-300 g, and which were cared for in accordance with the principles and guidelines of the Canadian Council of Animal Care. All rats were catheterized in the right jugular vein for sample collection.
(§2) The tablets were crushed gently and small pieces were administered into the stomach via a plastic tube followed by 0.5 mL tap water. […] They had free access to water.

[2] = Bioavailability of oral ibuprofen formulations in vagal-suppressed (propantheline-treated, Pain Model) rats; assay type: in vivo, Sprague-Dawley rats; settings: 20 mg/kg ibuprofen oral as crushed tablets
Description: as §1
An animal model having suppressed vagal properties were produced by administering (intraperitoneal injection) to the rats two 20 mg/kg doses of propantheline (test, n=6), an anticholinergic agent with known vagal suppressive properties, the first dose at 2 hours prior to administration of an NSAID, and the second at 1 hour prior.
as §2

- AUC (0-1) [1]: 48.7 μg/h/mL^−1
- AUC (0-8) [2]: 81.8 μg/h/mL^−1
Compound: CC(C)Cc1ccc(C(C)C(=O)O)cc1 (racemic) [ibuprofen, (±)-2-(4-Isobutylphenyl)propionic acid]
